Results published in PubChem BioAssay AID2029 (NMMLSC, 2009).
Only a part is listed here, and it is no random draw. The source made the active and inactive calls.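 Rule for the calls: active = GFP response relative to DMSO above a set limit, near the screen mean plus 3 SD (cut at about 150% in these data); inconclusive = Fewer than 70 cells measured for a yeast strain; inactive = the rest.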

Experiment: modulators of CIT2-GFP expression in yeast, primary screen, S. cerevisiae, GFP fusion, multiplex flow cytometry, MLPCN library (AID 2029);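 note: ratio of well median GFP fluorescence to mean of DMSO wells on the plate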
Settings: S. cerevisiae CIT2-GFP strain, 3 h, at 10 µM, stronger effect = higher value, 100 means same as DMSO wells

Q: For `CCOP(=O)(Nc1cccc2ccccc12)OCC`, which GFP response vs DMSO is on record?
A: active: 175%

Q: For `COc1cc(C2NCCC3(OCCO3)C2(C)C)cc(OC)c1OC` (centres undefined), which GFP response vs DMSO is on record?
A: inactive: 101%

Q: For `O=C(OC1CN2CCC1CC2)c1ccc(Cl)cc1` (centres undefined), which GFP response vs DMSO is on record?
A: inactive: 86%

Q: For `CS(=O)(=O)c1ccc(Cl)c(NC(=O)COC(=O)C(O)(c2ccccc2)c2ccccc2)c1`, which GFP response vs DMSO is on record?
A: inactive: 99.6%

Q: Which GFP response vs DMSO does the source give for `COc1cc(C(=O)NCC2(N3CCOCC3)CCCCC2)cc(Cl)c1OC(C)C` here?
A: inactive: 102%

Q: For `O=[As](O)(O)c1cccnc1`, which GFP response vs DMSO is on record?
A: inactive: 106%

Q: With `O=[As](O)(c1cccc(O)c1)c1cccc(O)c1` as the compound, how does the GFP response vs DMSO read?
A: inactive: 100%

Q: With `Cc1cccc(OCC(=O)OC2CN3CCC2CC3)c1` (centres undefined) as the compound, how does the GFP response vs DMSO read?
A: inactive: 109%

Q: Which GFP response vs DMSO does the source give for `NC(=O)Nc1ccc([As](=O)(O)O)cc1` here?
A: inactive: 108%

Q: With `CN(C(=O)Cc1ccccc1)[C@@H]1CC[C@]2(CCCO2)C[C@H]1N1CCCC1` as the compound, how does the GFP response vs DMSO read?
A: inactive: 87.5%

Q: For `CCOP1(=S)c2c(C)nn(CCC#N)c2N=C(c2ccc(F)cc2)N1C` (centres undefined), which GFP response vs DMSO is on record?
A: inactive: 99.4%

Q: Which GFP response vs DMSO does the source give for `N#CCCN(C(=O)COC(=O)C(O)(c1ccccc1)c1ccccc1)c1ccc(F)cc1` here?
A: inactive: 99.3%

Q: For `CN(C(=O)Cc1ccc(Cl)c(Cl)c1)[C@H]1CC[C@@]2(CCCO2)C[C@@H]1N1CCCC1`, which GFP response vs DMSO is on record?
A: inactive: 87.8%

Q: With `CN(C)C(=O)c1cc([N+](=O)[O-])cc2c1-c1c(cc([N+](=O)[O-])cc1[N+](=O)[O-])C2=O` as the compound, how does the GFP response vs DMSO read?
A: inactive: 78.2%

Q: For `O=[N+]([O-])c1ccc2c(c1)nnn2O`, which GFP response vs DMSO is on record?
A: inactive: 110%

Q: For `O=P(Nc1nccs1)(c1ccccc1)c1nc2ccccc2s1` (centres undefined), which GFP response vs DMSO is on record?
A: inactive: 85.8%

Q: For `O=P(Nc1nccs1)(Oc1ccccc1)Oc1ccccc1`, which GFP response vs DMSO is on record?
A: inactive: 96.9%

Q: With `CCOP1(=S)c2c(C)nn(CCC#N)c2N=C(c2ccccc2F)N1C` (centres undefined) as the compound, how does the GFP response vs DMSO read?
A: inactive: 97.8%

Q: Which GFP response vs DMSO does the source give for `CS(=O)(=O)c1cc([N+](=O)[O-])c2no[n+]([O-])c2c1` here?
A: inactive: 86.9%

Q: Which GFP response vs DMSO does the source give for `O=C(O)COc1ccc([As](=O)(O)O)cc1[N+](=O)[O-]` here?
A: inactive: 117%

Q: For `Nc1ccccc1[As](=O)(O)c1ccccc1`, which GFP response vs DMSO is on record?
A: inactive: 85.6%

Q: Which GFP response vs DMSO does the source give for `O=P1(Nc2ncccn2)COc2ccccc2OC1` here?
A: inactive: 102%

Q: With `Nc1cccc([As](=O)(O)c2ccccc2)c1` as the compound, how does the GFP response vs DMSO read?
A: inactive: 75%

Q: With `NS(=O)(=O)c1cccc(NC(=O)COC(=O)C(O)(c2ccccc2)c2ccccc2)c1` as the compound, how does the GFP response vs DMSO read?
A: inactive: 93.1%

Q: Which GFP response vs DMSO does the source give for `O=P1(Nc2ccc(Br)cn2)COc2ccccc2OC1` here?
A: inactive: 104%

Q: Which GFP response vs DMSO does the source give for `O=[As](O)(c1cccs1)c1cccs1` here?
A: inactive: 98.8%

Q: For `Cc1ccc(OCC(=O)OC2CN3CCC2CC3)cc1` (centres undefined), which GFP response vs DMSO is on record?
A: inactive: 102%

Q: For `Cc1ccc(C(=O)OC2CN3CCC2CC3)cc1` (centres undefined), which GFP response vs DMSO is on record?
A: inactive: 94.1%

Q: For `CC1CCC(C(C)C)C(OP(=O)(Nc2ccccn2)c2ccccc2)C1` (centres undefined), which GFP response vs DMSO is on record?
A: inactive: 90.2%

Q: With `Cc1nn(-c2ccccc2)c2c1P(=O)(N1CCOCC1)N(C)C(c1ccccc1)=N2` (centres undefined) as the compound, how does the GFP response vs DMSO read?
A: inactive: 98.9%

Q: Which GFP response vs DMSO does the source give for `CN(C)C1(CNC(=O)c2ccc(S(C)(=O)=O)cc2)CCCCC1` here?
A: inactive: 99.6%

Q: Which GFP response vs DMSO does the source give for `O=C(/C=C/c1ccccc1)OC1CN2CCC1CC2` (centres undefined) here?
A: inactive: 92.8%

Q: Which GFP response vs DMSO does the source give for `COc1ccccc1CNC(=O)COC(=O)C(O)(c1ccccc1)c1ccccc1` here?
A: inactive: 105%

Q: Which GFP response vs DMSO does the source give for `CN(C(=O)Cc1ccc(Cl)c(Cl)c1)[C@@H]1CCCC[C@H]1N1CCCC1` here?
A: inactive: 81.2%

Q: For `CC(C)/C=N\N=C(\N)N[N+](=O)[O-]`, which GFP response vs DMSO is on record?
A: inactive: 98.3%

Q: Which GFP response vs DMSO does the source give for `CC1(CBr)Cn2c(nc3ccccc3c2=O)S1` (centres undefined) here?
A: inactive: 102%

Q: For `O=[As](O)(c1ccccc1Br)c1ccccc1Br`, which GFP response vs DMSO is on record?
A: inactive: 104%

Q: For `CCOP(=O)(NC(=NC(C)c1ccccc1)NC(C)c1ccccc1)OCC` (centres undefined), which GFP response vs DMSO is on record?
A: inactive: 100%

Q: Which GFP response vs DMSO does the source give for `CCC1=CC2Cc3nc4ccc(Cl)cc4c(N)c3C(C1)C2` (centres undefined) here?
A: inactive: 96.7%

Q: For `O=P1(Nc2ccccn2)COc2ccccc2OC1`, which GFP response vs DMSO is on record?
A: inactive: 99%

Q: Which GFP response vs DMSO does the source give for `CN(CCCl)Cc1cc(Cl)c(NC2=NCCN2)c(Cl)c1` here?
A: inactive: 101%

Q: For `CCOP(=O)(Nc1ccc(C)cn1)OCC`, which GFP response vs DMSO is on record?
A: inactive: 109%

Q: For `CC(C)(C)C(=O)NC(Sc1ncccn1)C(Cl)(Cl)Cl` (centres undefined), which GFP response vs DMSO is on record?
A: inactive: 99%

Q: Which GFP response vs DMSO does the source give for `Clc1n[nH]nc1-c1nn[nH][15n]1` here?
A: inactive: 102%
